pIC50: −log10 of the molar value.

Protein sequences, listed by entry. Tags and fused reporters are not part of them. Lines headed by an entry give the natural chain unless they say otherwise; changes in a name come on top.
UniProt P30550: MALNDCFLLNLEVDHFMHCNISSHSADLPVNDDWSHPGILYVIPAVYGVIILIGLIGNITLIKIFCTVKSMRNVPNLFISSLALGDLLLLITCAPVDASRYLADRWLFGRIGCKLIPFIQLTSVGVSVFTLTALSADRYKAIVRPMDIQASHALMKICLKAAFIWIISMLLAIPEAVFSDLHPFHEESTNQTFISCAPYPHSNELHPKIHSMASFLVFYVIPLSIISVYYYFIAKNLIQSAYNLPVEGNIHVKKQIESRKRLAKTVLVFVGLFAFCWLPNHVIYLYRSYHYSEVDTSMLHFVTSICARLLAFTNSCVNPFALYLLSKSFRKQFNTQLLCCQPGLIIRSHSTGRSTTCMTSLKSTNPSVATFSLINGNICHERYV

The first experiment has as its target T1, GRP-R (Homo sapiens, UniProt P30550).
T1 construct: host or cells: PC3 human prostate cancer cells, intact and plated
The experiment in a line: In vitro competition binding assay with 125I-BBN for GRP-R in PC3 cells (Example XLIII; also the PC3 part of Example LX). Conditions: Table 1; concentration of compound to inhibit 50% binding of iodinated bombesin to a GRP receptor on cells; unlabeled ligand; unit inferred; read-out: IC50.
Turning to “DO3A-monoamide-8-amino-3,6-dioxaoctanoic acid-diaminopropionic acid-BBN(7-14) [Compound L78]”, the negative logarithm of the IC50 (pIC50) was 7.46.
Still for that read-out and setting: under “N,N-dimethylglycine-Ser-Cys(Acm)-Gly-2,3-diaminopropionic acid-8-amino-3,6-dioxaoctanoic acid-BBN(7-14) [Compound L18]” stands 8.11.
Same read-out and setting: under “N,N-dimethylglycine-Ser-Cys(Acm)-Gly-8-amino-3,6-dioxaoctanoic acid-2,3-diaminopropionic acid-BBN(7-14) [Compound L16]” stands 7.77.
The same measure, in the same setting: under “N,N-dimethylglycine-Ser-Cys(Acm)-Gly-8-amino-3,6-dioxaoctanoic acid-2,3-diaminopropionic acid-Gly-BBN(7-14) [Compound L24]” stands 7.42; under “N,N-dimethylglycine-Ser-Cys(Acm)-Gly-8-amino-3,6-dioxaoctanoic acid-2,3-diaminopropionic acid-Gly-BBN(7-14) [Compound L59]”, 7.38; under “N,N-dimethylglycine-Ser-Cys(Acm)-Gly-8-amino-3,6-dioxaoctanoic acid-8-amino-3,6-dioxaoctanoic acid-Gly-BBN(7-14) [Compound L23]”, below 7.30.
On to “N,N-dimethylglycine-Ser-Cys(Acm)-Gly-8-amino-3,6-dioxaoctanoic acid-Arg-Gly-BBN(7-14) [Compound L22]”, for which the pIC50 was 7.44.
Still for that read-out and setting: under “N,N-dimethylglycine-Ser-Cys(Acm)-Gly-8-amino-3,6-dioxaoctanoic acid-Asp-Gly-BBN(7-14) [Compound L20]” stands 7.43; under “N,N-dimethylglycine-Ser-Cys(Acm)-Gly-8-amino-3,6-dioxaoctanoic acid-Lys-Gly-BBN(7-14) [Compound L25]”, 7.59.
Turning to “N,N-dimethylglycine-Ser-Cys(Acm)-Gly-8-amino-3,6-dioxaoctanoic acid-Ser-Gly-BBN(7-14) [Compound L21]”, the pIC50 was 7.34.
Same read-out and setting: under “N,N-dimethylglycine-Ser-Cys(Acm)-Gly-Asp-8-amino-3,6-dioxaoctanoic acid-BBN(7-14) [Compound L3]” stands below 7.30.
On the same count and under the same terms, the figure for “N,N-dimethylglycine-Ser-Cys(Acm)-Gly-Asp-8-amino-3,6-dioxaoctanoic acid-Gly-BBN(7-14) [Compound L19]” is below 7.30; for “N,N-dimethylglycine-Ser-Cys(Acm)-Gly-N-1-piperazineacetic acid-2,3-diaminopropionic acid BBN(7-14) [Compound L37]” it is 7.64; for “N,N-dimethylglycine-Ser-Cys(Acm)-Gly-N-1-piperazineacetic acid-Arg-BBN(7-14) [Compound L35]” it is 7.59.
Same read-out and setting: under “N,N-dimethylglycine-Ser-Cys(Acm)-Gly-N-1-piperazineacetic acid-Ser-BBN(7-14) [Compound L34]” stands 7.42; under “N,N-dimethylglycine-Ser-Cys(Acm)-Gly-N-4-aminoethyl-N-1-piperazineacetic acid-Lys-BBN(7-14) [Compound L32]”, 7.47.

The same experiment, now with this note: concentration of compounds to inhibit 50% binding of iodinated bombesin to a GRP receptor on cells; read-out: IC50.
Consider “(1R)-1-(Bis{2-[bis(carboxymethyl)amino]ethyl}amino)propane-3-carboxylic acid-1-carboxyl-glycyl-4-aminobenzoyl-L-glutaminyl-L-tryptophyl-L-alanyl-L-valyl-glycyl-L-histidyl-L-leucyl-L-methioninamide [Compound L201]”, for which the pIC50 is 7.44.

The same experiment, now with this note: text b655; unit inferred; read-out: IC50.
In the case of “N,N-dimethylglycine-Ser-Cys(Acm)-Gly-5-aminopentanoic acid-BBN (7-14) [RP527, reference compound]”, the negative logarithm of the IC50 (pIC50) is 9.08.

For the origin of these results see US7922998B2, “Gastrin releasing peptide compounds” (Bracco Imaging S.p.A., priority 2003, dated 2011).
